# Laboratory results: patent US12091776B2, “Protease activity profiling via programmable phage display of comprehensive proteome-scale peptide libraries” (THE JOHNS HOPKINS UNIVERSITY, priority 2019, dated 2024)
# B1: MSDIEEVVEEYEEEEQEEAAVEEEEDWREDEDEQEEAAEEDAEAEAETEETRAEEDEEEEEAKEAEDGPMEESKPKPRSFMPNLVPPKIP (protein, listed as Homo sapiens)
# chain: MSDIEEVVEEYEEEEQEEAAVEEEEDWREDEDEQEEAAEEDAEAEAETEETRAEEDEEEEEAKEAEDGPMEESKPKPRSFMPNLVPPKIP
# B2: SSALSGSGISRMQRPSSEAQMRMVASSEVDTRMSLERDQAKSETPRVWPRSTRSTVGGAGTSWHREMLPSRPEDHPQTHLHAVKSSAATA (protein, listed as Homo sapiens)
# chain: SSALSGSGISRMQRPSSEAQMRMVASSEVDTRMSLERDQAKSETPRVWPRSTRSTVGGAGTSWHREMLPSRPEDHPQTHLHAVKSSAATA
# B3: MVQLRPRASRAPASAEAMVDEGQLASEEEEAEHGLLLGQPSSGAAAEPLEEDEEGDDEFDDEAPEELTFASAQAEAREEERRVRETVRRD (protein, listed as Homo sapiens)
# chain: MVQLRPRASRAPASAEAMVDEGQLASEEEEAEHGLLLGQPSSGAAAEPLEEDEEGDDEFDDEAPEELTFASAQAEAREEERRVRETVRRD
# B4: PRAHPAPSMGSLRNEFWFSDGSLSDKSKCADPGLMPLPDTATGLDWTHLVDAARAFEGLDSDEELGLLCHHTSYLDQRVASFCTLTDMQH (protein, listed as Homo sapiens)
# chain: PRAHPAPSMGSLRNEFWFSDGSLSDKSKCADPGLMPLPDTATGLDWTHLVDAARAFEGLDSDEELGLLCHHTSYLDQRVASFCTLTDMQH
# B5: MLQKPRNRGRSGGQAERDRDWSHSGNPGASRAGEDARVLRDGFAEEAPSTSRGPGGSQGSQGPSPQGARRAQAAPAVGPRSQKQLELKVS (protein, listed as Homo sapiens)
# chain: MLQKPRNRGRSGGQAERDRDWSHSGNPGASRAGEDARVLRDGFAEEAPSTSRGPGGSQGSQGPSPQGARRAQAAPAVGPRSQKQLELKVS
# B6: VEVWIGMTIEELARAMEKNTDYVYEALLNTDIDIDSLEADSHLDEVWIKEVITKAGMKLKWSKLKQDKVRKNKDAVRRPQADPALLTPRS (protein, listed as Homo sapiens)
# chain: VEVWIGMTIEELARAMEKNTDYVYEALLNTDIDIDSLEADSHLDEVWIKEVITKAGMKLKWSKLKQDKVRKNKDAVRRPQADPALLTPRS
# B7: PVTPQPRSISGPSVGVMEMRSPLLAGGSPPQPVVPAHKDKSGAPPVRSIYDDISSPGLGSTPLTSRRQPNISVMQSPLVGVTSTPGTGQS (protein, listed as Homo sapiens)
# chain: PVTPQPRSISGPSVGVMEMRSPLLAGGSPPQPVVPAHKDKSGAPPVRSIYDDISSPGLGSTPLTSRRQPNISVMQSPLVGVTSTPGTGQS
# B8: MSDIEEVVEEYEEEEQEEQEEAAEEDAEAEAETEETRAEEDEEEEEAKEAEDGPMEESKPKPRSFMPNLVPPKIPDGERVDFDDIHRKRM (protein, listed as Homo sapiens)
# chain: MSDIEEVVEEYEEEEQEEQEEAAEEDAEAEAETEETRAEEDEEEEEAKEAEDGPMEESKPKPRSFMPNLVPPKIPDGERVDFDDIHRKRM
# B9: … (protein, listed as Homo sapiens)
# chain: LLPRSAGRPDPQSQLPERTGAEWNPPLSFSLASRGLSGQYVTLDNRSGELHTSAQEIDREALCVEGGGGTAWSGSVSISSSPSDSCLLLL
# B10: … (protein, listed as Homo sapiens)
# chain: DSSKPIVRESWMTELPPEMKDFGLGPRTFKRRADDTSGDRSIWTDTPADRERKAKETQEARKSSSKKDEEHILSGRDKRLAEQVSSYNES
# B11: MGQQVGRVGEAPGLQQPQPRGIRGSSAARPSGRRRDPAGRTTETGFNIFTQHDHFASCVEDGFEGDKTGGSSPEALBRPYGCDVEPQALN (protein, listed as Homo sapiens)
# chain: MGQQVGRVGEAPGLQQPQPRGIRGSSAARPSGRRRDPAGRTTETGFNIFTQHDHFASCVEDGFEGDKTGGSSPEALHRPYGCDVEPQALN
# B12: … (protein, listed as Homo sapiens)
# chain: LGRLQGQPLRDGEEVVLLLEGIHREPSHAGPLDFSCNAGKSCPRADVTLEEKGCASQVPSHSPKKELPAEEPSVLGPSDEPPRPQPRAAQ
# B13: SELAQNKEELTPGAPQHQLPPVPGSPEPYPGQQAPGPEPSQPLLELTPRAPGSPRGQHEPSKPPPAGETVTGGFGAKKRKGSSQAPASK (protein, listed as Homo sapiens)
# chain: SELAQNKEELTPGAPQHQLPPVPGSPEPYPGQQAPGPEPSQPLLELTPRAPGSPRGQHEPSKPPPAGETVTGGFGAKKRKGSSQAPASK
# B14: … (protein, listed as Homo sapiens)
# chain: ATFIRDGYNNVPSVGSLADPDYLNTPQMNTPVTLNSAAPASNSGAGVLPSPATPRFSVPTPRTPRTPRTPRGGGTASGQGSVKYDSTDQG
# B15: AGLGRAGDSAVLVLPPSPGPRSSRPSMDSEGGSLLLDEDSEVFKMLQENREGRAAPRQSSSFRLLQEALEAEERGGTPAFLPSSLSPQSS (protein, listed as Homo sapiens)
# chain: AGLGRAGDSAVLVLPPSPGPRSSRPSMDSEGGSLLLDEDSEVFKMLQENREGRAAPRQSSSFRLLQEALEAEERGGTPAFLPSSLSPQSS
# B16: SLEALGMPRAYRLPSSFERVPCQTESSGPVPTIDRAGTEFDMAAKHLQSQSTPQAQARSKGSVALMNEKQKPHLQGSELRTEKLLSEGL (protein, listed as Homo sapiens)
# chain: SLEALGMPRAYRLPSSFERVPCQTESSGPVPTIDRAGTEFDMAAKHLQSQSTPQAQARSKGSVALMNEKQKPHLQGSELRTEKLLSEGL
# B17: MSDIEEVVEEYEEEEQEEAAVEEQEEAAEEDAEAEAETEETRAEEDEEEEEAKEAEDGPMEESKPKPRSFMPNLVPPKIPDGERVDFDDI (protein, listed as Homo sapiens)
# chain: MSDIEEVVEEYEEEEQEEAAVEEQEEAAEEDAEAEAETEETRAEEDEEEEEAKEAEDGPMEESKPKPRSFMPNLVPPKIPDGERVDFDDI
# B18: AETEETRAEEDEEEEEAKEAEDGPMEESKPKPRSFMPNLVPPKIPDGERVDFDDIHRKRMEKDLNELQALIEAHFENRKKEEEELVSLKD (protein, listed as Homo sapiens)
# chain: AETEETRAEEDEEEEEAKEAEDGPMEESKPKPRSFMPNLVPPKIPDGERVDFDDIHRKRMEKDLNELQALIEAHFENRKKEEEELVSLKD
# Target: T1, Thrombin (Homo sapiens, UniProt P00734)
# T1 construct: Thrombin (a serine protease); purchased SignalChem
# Test: SEPARATE assay: human peptidome library digest with Thrombin
# Assay type: biochemical
# Details: top 20 enriched peptides, human library (90-aa tiles); digest vs mock digest
# Experimental: Streptavidin-coupled magnetic beads (Dynabeads M-280 Streptavidin, ThermoFisher Scientific) were washed (TBS, pH 7.4, 0.01% NP40) and resuspended in binding buffer (TBS, pH 7.4, 0.001% NP40) containing 2E9 plaque forming units per 10 μl of bead slurry. End-over-end mixing at room temperature was performed for one hour. Phage-coated beads were washed three times with wash buffer and transferred into two protein LoBind Eppendorf tubes blocked with TBS, pH 7.4 containing 1% BSA.
# Protease digestions was performed in 50 μl of appropriate buffer alone or containing the protease: (a) Caspase-1/PreScission: 1×TBS, pH 7.4, 0.01% NP40, 1 mM DTT; (b) Thrombin: TBS, pH 7.4, 0.01% NP40; (c) ADAM17: Tris, pH 8.0, ZnCl2 2.5 uM, 0.005% Tween 20. Digestion occurred overnight at room temperature with end-over-end rotation. Digest reactions were quenched by addition of 100 μl TBS, pH 7.4, 0.01% NP40 containing AEBSF (2 mM), Aprotinin (0.3 μM), Bestatin (116 μM), E-64 (14 μM), Leupeptin (1 μM), and EDTA (1 mM) for thirty minutes at room temperature. To remove any residual biotinylated phage that may have been nonspecifically released, the 150 μl supernatant of the quenched digest reaction is then incubated with a fresh 10 μl of slurry volume M280 streptavidin beads (pre-washed three times with wash buffer) in a LoBind Eppendorf tube blocked with TBS, pH 7.4 containing 1% BSA at room temperature for one hour with end-over-end rotation.
# 10 μl slurry volume of protein G magnetic dynabeads were washed in buffer (TBS, pH 7.4, 0.01% NP40) and then resuspended in 50 μl TBS, pH 7.4, 0.01% NP40 containing 4 μg of M2 FLAG antibody for thirty minutes at room temperature with end-over-end rotation. The 150 μl quenched digest reaction is added to the 10 μl FLAG-coated Protein G beads and incubated for 60 minutes at room temperature with end-over-end rotation to capture phage particles released at the protease digest step. Beads are rinsed once with 100 μl wash buffer and stored at −80° C. until PCR amplification.
# Library PCR preparation, high-throughput DNA sequencing, and peptide read count data generation was performed as described previously.^44 Briefly, library peptide inserts are amplified by resuspending 10 μl of FLAG-coated Protein G beads in PCR1 master mix containing the T7-Pep2_PCR1_F forward primer ([…]) (SEQ ID NO:3) and a T7-SEPARATE vector specific reverse primer ([…]) (SEQ ID NO:4), which includes an adapter sequence for sample-specific barcoding and Illumina P7 adapter incorporation during a subsequent PCR2 reaction. The PCR2 amplicons are pooled and sequenced using an Illumina NextSeq instrument in standard output mode to obtain single-end 50 nucleotide reads. Dual indexed sample demultiplexing and clonal read count determination were performed using exact sequence matching. […] To calculate the normalization factor, 100 peptides were randomly selected from the mock digest conditions with a read count ranging between 10 and 40. The median read count value for these 100 peptides is calculated for each sample. The random peptide selection and median calculation is performed 20 times and the average of the 20 median values is calculated for each sample. Finally, the normalization factor is calculated by dividing the average median value for each sample by that for one of the mock digest conditions. Read counts are then converted to normalized read counts by dividing each sample's read count values by the normalization factor. Fold enrichments are calculated for each peptide by dividing their normalized read counts in the digest condition by the normalized read counts in the mock digest condition. The fold enrichments can be visualized in an MA plot by transforming the normalized read count data into a log ratio (M, on the y-axis) and a mean average (A, on the x-axis) between the digest and mock digest conditions.
row,Molecule,Thrombi Fold Change [fold]
1,B1,17.66
2,B2,15.43
3,B3,15.07
4,B4,14.27
5,B5,12.49
6,B6,12.32
7,B7,12.05
8,B8,11.56
9,B9,11.53
10,B10,11.22
11,B11,11.16
12,B12,10.92
13,B13,10.90
14,B14,10.80
15,B15,10.76
16,B16,10.68
17,B17,10.44
18,B18,19.08
